Among the data in PubChem BioAssay AID2288 (National Center for Advancing Translational Sciences (NCATS), 2010) are activity change, positive = activation values, retold here.

Only a part is listed here, and it is no random draw. Some salts and complexes are drawn in separate pieces, as the source files them; their charges need not balance. Active and inactive are the calls of the source. Calls come from the whole dose curve; as a rule, active = well fitted curve in the direction sought with a large enough effect; inconclusive = small, poorly fitted or top-dose-only effect, or another doubt; inactive = no such curve, though single readings can be large or run the other way.

This assay can be described thus: qHTS Assay for Modulators of miRNAs and/orActivators of miR-21.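 Note: % of control where 0% means no effect; miR-21 action dims this reporter so a rising signal means less miR-21 action.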 Conditions: HeLa miR-21 FLuc reporter, luciferase, 48 h; at 38.3 µM (top of the series). In general terms: Quantitative high-throughput screening tests each substance at several concentrations.
Turning to `CCOC(=O)C(CC)C1=NC(C)(C)Cc2ccccc21.O=[N+]([O-])c1cc([N+](=O)[O-])c(O)c([N+](=O)[O-])c1` (configuration not stated), the activity change, positive = activation was inactive: -3.23%.

For the compound `CC(C)(C)OC(=O)N1CCC(N(C(=O)c2ccccc2)c2ccc(Cl)cc2)CC1`, the activity change, positive = activation was inactive: 18.9%.

For `O=C(NCC1(N2CCOCC2)CCCCC1)c1ccc([N+](=O)[O-])cc1`, the activity change, positive = activation was inactive: -2.09%.

For `N#Cc1ccc(C(=O)NCC2(N3CCCCC3)CCCCC2)cc1`, the activity change, positive = activation is inactive: 4.62%.

Regarding `O=C(NCC1(N2CCOCC2)CCCCC1)c1ccccc1[N+](=O)[O-]`, the activity change, positive = activation was inactive: -6.08%.

`c1ccc(CN2CCC(Nc3ccccc3)CC2)cc1`: the activity change, positive = activation was inactive: -1.47%.

Turning to `CCCN1CCC(Nc2cc(OC)cc(OC)c2)CC1`, the activity change, positive = activation is inactive: -1.03%.

Consider `O=C(NCC1(N2CCOCC2)CCCCC1)c1ccccc1`, for which the activity change, positive = activation was inactive: -2.85%.

On to `CN(C)C1(CNC(=O)c2cccc(C#N)c2)CCCCC1`, for which the activity change, positive = activation is inactive: -3.49%.

For `COc1ccc(C(=O)NCC2(N3CCOCC3)CCCCC2)cc1OC`, the activity change, positive = activation was inactive: -3.84%.

For `O=C(OC1CN2CCC1CC2)C1c2ccccc2C=Cc2ccccc21` (configuration not stated), the activity change, positive = activation is inactive: 3.4%.

In the case of `O=C(O)c1cccc(Nc2c([N+](=O)[O-])cc([N+](=O)[O-])cc2[N+](=O)[O-])c1`, the activity change, positive = activation is inactive: 1.94%.

Regarding `N/C(=N\O)c1c(N)no[n+]1[O-]`, the activity change, positive = activation was inactive: -1.7%.

Take `CCOC(=O)N1CCC(Nc2ccc(C)cc2)CC1`: the activity change, positive = activation was inactive: -1.7%.

Turning to `CCCOc1ccc(C(=O)NCC2(N(C)C)CCCCC2)cc1`, the activity change, positive = activation was inactive: -2.64%.

As to `CC(C)(C)OC(=O)N1CCC(Nc2ccccc2)CC1`, the activity change, positive = activation is inactive: 0.672%.

In the case of `O=C(O)C1(Nc2ccccc2)CCN(Cc2ccccc2)CC1`, the activity change, positive = activation is inactive: -0.709%.

Turning to `CCOc1ncccc1C(=O)NCC1(N2CCOCC2)CCCCC1`, the activity change, positive = activation was inactive: -2.53%.

Consider `CN1CCC(Nc2ccc(F)c(Cl)c2)CC1`, for which the activity change, positive = activation was inactive: -0.344%.

Regarding `CCCOc1ccc(C)cc1CN(CCCl)CCCl`, the activity change, positive = activation is inactive: 0.221%.

As to `CN1CCC(Nc2ccc(Cl)cc2)CC1`, the activity change, positive = activation was inactive: -3.08%.

On to `CCC(CO)(C(=O)OC1CN2CCC1CC2)c1ccccc1` (configuration not stated), for which the activity change, positive = activation was inactive: 0.0138%.

On to `COc1cc(C(=O)NCC2(N3CCOCC3)CCCCC2)cc(OC)c1OC`, for which the activity change, positive = activation was inactive: 5.03%.

Turning to `COc1cc(OC)cc(C(=O)NCC2(N3CCOCC3)CCCCC2)c1`, the activity change, positive = activation is inactive: -2.24%.

Take `COc1cccc(C(=O)N(c2cc(C)cc(C)c2)C2CCN(C(=O)OC(C)(C)C)CC2)c1`: the activity change, positive = activation is inactive: 0.0961%.

Regarding `Fc1ccccc1NC1CCN(Cc2ccccc2)CC1`, the activity change, positive = activation was inactive: -3.46%.

`COc1cc(OC)cc(C(=O)NCC2(N3CCCCC3)CCCCC2)c1`: the activity change, positive = activation was inactive: 1.31%.

Consider `CN(C)C1(CNC(=O)c2ccc(C(C)(C)C)cc2)CCCCC1`, for which the activity change, positive = activation is inactive: -10.4%.

In the case of `CC(C)(C)c1ccc(C(=O)NCC2(N3CCOCC3)CCCCC2)cc1`, the activity change, positive = activation was inactive: 2.3%.

In the case of `CN(C)c1ccc(C(=O)NCC2(N3CCCCC3)CCCCC2)cc1`, the activity change, positive = activation is inactive: -0.742%.

Regarding `Cc1ccccc1C(=O)NCC1(N(C)C)CCCCC1`, the activity change, positive = activation was inactive: -1.49%.

As to `CCN1CCC(Nc2cccc(F)c2)CC1`, the activity change, positive = activation was inactive: -12%.

Regarding `O=C(NCC1(N2CCCCC2)CCCCC1)c1ccc(F)cc1`, the activity change, positive = activation is inactive: 0.67%.

As to `COc1ccc(NC2CCN(CCc3ccccc3)CC2)c(OC)c1`, the activity change, positive = activation is inactive: -7.12%.

On to `CCOC(=O)N1CCC(Nc2ccc(F)cc2)CC1`, for which the activity change, positive = activation is inactive: -0.655%.

In the case of `COc1ccccc1C(=O)NCC1(N2CCOCC2)CCCCC1`, the activity change, positive = activation was inactive: -5.98%.

On to `CCOc1ccc(C)cc1CN(CCCl)CCCl`, for which the activity change, positive = activation was inactive: -2.72%.

Regarding `O=C(NCC1(N2CCOCC2)CCCCC1)c1ccc(Cl)cc1`, the activity change, positive = activation is inactive: 26.2%.

As for `CCOC(=O)N1CCC(Nc2cccc(C)c2)CC1`, the activity change, positive = activation is inactive: -2.45%.

On to `COc1cc(C(=O)NCC2(N(C)C)CCCCC2)ccc1OC(F)F`, for which the activity change, positive = activation is inactive: -4.32%.

Turning to `Cc1ccc(OCC(C)C)c(CN(CCCl)CCCl)c1`, the activity change, positive = activation is inactive: 0.387%.

Consider `CSc1ccccc1C(=O)NCC1(N2CCCCC2)CCCCC1`, for which the activity change, positive = activation is inactive: -0.244%.

Take `O=C(NCC1(N2CCCCC2)CCCCC1)c1ccc(=O)[nH]c1`: the activity change, positive = activation was inactive: 3.58%.

For the compound `COc1ccc(C(=O)NCC2(N3CCCCC3)CCCCC2)cc1`, the activity change, positive = activation is inactive: -2.39%.

For the compound `COc1ccc(C(=O)NCC2(N3CCCCC3)CCCCC2)c(OC)c1OC`, the activity change, positive = activation is inactive: 14.3%.

Take `CC(C)(C)OC(=O)N1CCC(N(C(=O)c2ccccc2)c2ccc(F)cc2)CC1`: the activity change, positive = activation was inactive: 0.0178%.

Regarding `CCOC(=O)N1CCC(Nc2ccc(OC)cc2)CC1`, the activity change, positive = activation was inactive: 4.89%.

`N#CC1(Nc2ccccc2)CCN(Cc2ccccc2)CC1`: the activity change, positive = activation is inactive: 1.54%.

On to `O=C(OC1CN2CCC1CC2)C1c2ccccc2Oc2ccccc21` (configuration not stated), for which the activity change, positive = activation was inactive: -4.91%.

In the case of `O=C(NCC1(N2CCOCC2)CCCCC1)c1cc2ccccc2o1`, the activity change, positive = activation was inactive: -2.25%.

On to `Cc1cc(C)cc(N(C(=O)c2ccccc2)C2CCN(C(=O)OC(C)(C)C)CC2)c1`, for which the activity change, positive = activation is inactive: -0.0503%.

`COc1cc(OC)c(C(=O)NCC2(N(C)C)CCCCC2)cc1OC`: the activity change, positive = activation was inactive: 0.343%.

Turning to `COc1ccc(CN(CCCl)CCCl)cc1Cl`, the activity change, positive = activation was inactive: -0.298%.

As for `O=[N+]([O-])c1cc([N+](=O)[O-])c(OC2CCCCC2O)c([N+](=O)[O-])c1` (configuration not stated), the activity change, positive = activation is inactive: -1.37%.

Take `CN(C)c1cccc(C(=O)NCC2(N3CCCCC3)CCCCC2)c1`: the activity change, positive = activation is inactive: 1.86%.

For the compound `CC(C)c1ccc(NC2CCN(C(=O)OC(C)(C)C)CC2)cc1`, the activity change, positive = activation was inactive: -29%.

Turning to `CCCCOc1ccccc1C(=O)NCC1(N2CCOCC2)CCCCC1`, the activity change, positive = activation is inactive: 9.81%.

Regarding `O=C(NCC1(N2CCOCC2)CCCCC1)c1ccccc1Br`, the activity change, positive = activation was inactive: 3.51%.

For the compound `CCCOc1ccc(C(=O)NCC2(N(C)C)CCCCC2)cc1OC`, the activity change, positive = activation is inactive: -5.91%.

Regarding `COc1ccc2c(c1O)-c1c(O)c(OC)cc3c1[C@H](C2)[N+](C)(C)CC3.O=[N+]([O-])c1cc([N+](=O)[O-])c([O-])c([N+](=O)[O-])c1[O-]`, the activity change, positive = activation is inactive: 3.33%.

With `O=C(OC1CN2CCC1CC2)c1ccc([N+](=O)[O-])cc1` (configuration not stated), the activity change, positive = activation was inactive: -0.862%.

Consider `O=C(NCC1(N2CCCCC2)CCCCC1)c1cccc([N+](=O)[O-])c1`, for which the activity change, positive = activation was inactive: 1.02%.

Consider `CCOc1ccc(C(=O)NCC2(N3CCOCC3)CCCCC2)cc1`, for which the activity change, positive = activation is inactive: -3.23%.

For the compound `CCN1CCC(Nc2ccc(Cl)cc2)CC1`, the activity change, positive = activation is inactive: -18.7%.

For the compound `N#CC1(Nc2ccccc2)CCN(CCc2ccccc2)CC1`, the activity change, positive = activation was inactive: -15.5%.

Take `O=C(NCC1(N2CCCCC2)CCCCC1)c1ccc(OC(F)F)cc1`: the activity change, positive = activation is inactive: -0.483%.

In the case of `CN1CCN(CCOC(=O)C(O)(c2ccccc2)c2ccccc2)CC1`, the activity change, positive = activation was inactive: -1.73%.

Regarding `COc1ccc(NC2CCN(C(=O)OC(C)(C)C)CC2)cc1`, the activity change, positive = activation was inactive: -9.11%.

Turning to `COc1cc(C(=O)NCC2(N3CCCCC3)CCCCC2)ccc1OC(F)F`, the activity change, positive = activation was inactive: 0.84%.

Consider `O=C(NCC1(N2CCOCC2)CCCCC1)c1cc(=O)[nH]c2ccccc12`, for which the activity change, positive = activation is inactive: 7.02%.

`CCCOc1cccc(C(=O)NCC2(N3CCOCC3)CCCCC2)c1`: the activity change, positive = activation was inactive: 1.9%.

Regarding `O=C(NCC1(N2CCCCC2)CCCCC1)c1cccc(C(F)(F)F)c1`, the activity change, positive = activation was inactive: 1.16%.
